From PubChem BioAssay AID1961 (Sanford-Burnham Center for Chemical Genomics, 2009)
The list shows a part of the results, in another mix than the full data. Active and inactive are the calls of the source.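 Rule for the calls: active = activation above 40% with more than 50 cells counted in the well; inconclusive = wells holding fewer than 50 cells, flagged as toxic or sparse; inactive = the rest.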

Sequences of proteins named here, by UniProt entry; tags and fusion partners are left off.
UniProt Q9Y2T6, whole entry: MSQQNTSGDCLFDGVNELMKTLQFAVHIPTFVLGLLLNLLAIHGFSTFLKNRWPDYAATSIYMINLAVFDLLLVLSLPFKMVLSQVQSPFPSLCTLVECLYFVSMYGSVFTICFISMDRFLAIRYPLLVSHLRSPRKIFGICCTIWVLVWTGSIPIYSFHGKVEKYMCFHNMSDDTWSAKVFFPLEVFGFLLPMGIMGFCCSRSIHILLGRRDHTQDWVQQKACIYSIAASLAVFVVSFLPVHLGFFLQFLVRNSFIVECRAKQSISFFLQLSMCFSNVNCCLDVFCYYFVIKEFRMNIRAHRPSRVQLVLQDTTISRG

The compounds below were run against G-protein coupled receptor 55 (Homo sapiens) (UniProt Q9Y2T6) (assay: selective activators of receptor GPR55 – imaging, U2OS cells, beta-arrestin-GFP redistribution, primary screen (AID 1961;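 for activation: U2OS osteosarcoma cells stably expressing GPR55 and beta-arrestin-GFP; plate controls were DMSO negative control for no effect and LPI positive control for full effect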)). Conditions: at 10 µM; hits give high values.
With `O=P(Nc1nccs1)(c1ccccc1)c1nc2ccccc2s1` (stereo not drawn) the activation was “inactive”. `O=C(O)c1cccc(Nc2c([N+](=O)[O-])cc([N+](=O)[O-])cc2[N+](=O)[O-])c1` was tested, and the activation was inactive: -1.9%. With `NC(=O)Nc1ccc([As](=O)(O)O)cc1` the activation was “inactive”. In the case of `CN(C(=O)Cc1ccccc1)[C@@H]1CC[C@]2(CCCO2)C[C@H]1N1CCCC1`, the activation is reported as “inactive”. In the case of `CC1=NCCc2c1[nH]c1ccccc21.O=[N+]([O-])c1cc([N+](=O)[O-])c(O)c([N+](=O)[O-])c1`, the activation is reported as inactive: 1.4%. `O=[N+]([O-])c1ccc2c(c1)nnn2O` was tested, and the activation was “inactive”. For `O=C(OC1CN2CCC1CC2)c1ccc(Cl)cc1` (stereo not drawn), the activation was “inactive”. With `CS(=O)(=O)c1ccc(Cl)c(NC(=O)COC(=O)C(O)(c2ccccc2)c2ccccc2)c1` the activation was “inactive”. `COc1ccccc1OP(C)(=O)Nc1cccc(Br)c1` (stereo not drawn) was tested, and the activation was inactive: 0%. In the case of `O=[As](O)(O)c1cccnc1`, the activation is reported as “inactive”. For `COc1cc(C(=O)NCC2(N3CCOCC3)CCCCC2)cc(Cl)c1OC(C)C`, the activation was “inactive”. For `Cc1cc(C)cc(OP(C)(=O)Nc2ccc(C)cc2C)c1` (stereo not drawn), the activation was inactive: -0.1%. With `O=[As](O)(c1cccc(O)c1)c1cccc(O)c1` the activation was “inactive”. With `CCOC(=O)c1ccc(NP(C)(=O)Oc2cc(C)cc(C)c2)cc1` (stereo not drawn) the activation was inactive: 0.7%. `Cc1cc(C)cc(OP(C)(=O)Nc2ccccn2)c1` (stereo not drawn) was tested, and the activation was inactive: -0.1%. For `CP(=O)(Nc1cccc(Br)c1)Oc1ccccc1` (stereo not drawn), the activation was inactive: 0.6%. With `Cc1ccc(C)c(NP(C)(=O)Oc2ccccc2)c1` (stereo not drawn) the activation was inactive: 0.3%. In the case of `O=[N+]([O-])c1cc([N+](=O)[O-])c(-n2nnc3ccccc32)c([N+](=O)[O-])c1`, the activation is reported as inactive: -0.4%. In the case of `O=P1(Nc2ccccn2)COc2ccccc2OC1`, the activation is reported as “inactive”. In the case of `Cc1nc2ccc3ccccc3c2s1.O=[N+]([O-])c1cc([N+](=O)[O-])c(O)c([N+](=O)[O-])c1`, the activation is reported as inactive: -0.3%. For `O=[As](O)(c1ccccc1Br)c1ccccc1Br`, the activation was “inactive”. For `Cc1nn(-c2ccccc2)c2c1P(=O)(N1CCOCC1)N(C)C(c1ccccc1)=N2` (stereo not drawn), the activation was “inactive”. `CCOC(=O)C(CC)C1=NC(C)(C)Cc2ccccc21.O=[N+]([O-])c1cc([N+](=O)[O-])c(O)c([N+](=O)[O-])c1` (stereo not drawn) was tested, and the activation was inactive: -0.2%. For `O=[N+]([O-])c1cc([N+](=O)[O-])c(Nc2nnnn2CCO)c([N+](=O)[O-])c1`, the activation was inactive: 0%. With `O=C(/C=C/c1ccccc1)OC1CN2CCC1CC2` (stereo not drawn) the activation was “inactive”. In the case of `COc1ccccc1OP(C)(=O)Nc1c(C)cccc1C` (stereo not drawn), the activation is reported as inactive: 0.2%. With `CN1CCCCC1COC(=O)C1(O)c2ccccc2CCc2ccccc21` (stereo not drawn) the activation was inactive: -0.2%. For `CCCOc1ccc(NP(C)(=O)Oc2ccc(Cl)cc2)cc1` (stereo not drawn), the activation was inactive: -0.1%. `Nc1cccc([As](=O)(O)c2ccccc2)c1` was tested, and the activation was “inactive”. `CP(=O)(Nc1ccc(SC(F)(F)F)cc1)Oc1ccccc1` (stereo not drawn) was tested, and the activation was inactive: -0.2%. For `O=[As](O)(c1cccs1)c1cccs1`, the activation was “inactive”. For `O=P1(Nc2ccc(Br)cn2)COc2ccccc2OC1`, the activation was “inactive”. For `CCOC(=O)Nc1ccc([As](=O)(O)O)c(O)c1`, the activation was “inactive”. In the case of `Cc1cc(SC(NC(=O)c2ccccc2)C(Cl)(Cl)Cl)nc(C(C)C)n1` (stereo not drawn), the activation is reported as “inactive”. In the case of `CCCCOc1ccc(C(=O)NCC2(N3CCCCC3)CCCCC2)cc1OC`, the activation is reported as “inactive”. For `CP(=S)(Nn1cnnc1)Oc1ccccc1` (stereo not drawn), the activation was inactive: -0.1%. In the case of `COc1ccccc1OP(C)(=O)Nc1ccccc1` (stereo not drawn), the activation is reported as inactive: 0.1%. In the case of `O=P(Nc1ccccn1)(c1cccc2ccccc12)c1cccc2ccccc12`, the activation is reported as “inactive”. With `O=[N+]([O-])c1ccc(Nc2ccc(Oc3ccc([N+](=O)[O-])cc3[N+](=O)[O-])cc2)c([N+](=O)[O-])c1` the activation was “inactive”. In the case of `CP(=O)(Nc1ccccc1Br)Oc1ccccc1` (stereo not drawn), the activation is reported as inactive: -0.2%. In the case of `CP(=O)(Oc1ccccc1)OC(c1ccccc1)C(F)(F)F` (stereo not drawn), the activation is reported as inactive: 0.1%. `COP1(=S)c2c(C)nn(CCC#N)c2N=C(c2ccc(F)cc2)N1C` (stereo not drawn) was tested, and the activation was “inactive”. For `Cc1cccc(C)c1OP(C)(=O)Nc1ccc(SC(F)(F)F)cc1` (stereo not drawn), the activation was inactive: 0%. For `CP(=O)(Nc1ccc(SC(F)(F)F)cc1)Oc1ccc(Cl)cc1` (stereo not drawn), the activation was inactive: -0.1%. `Cc1cc(C)cc(OP(C)(=O)Nc2ccc(SC(F)(F)F)cc2)c1` (stereo not drawn) was tested, and the activation was inactive: 0.3%. In the case of `CP(=O)(NC(=O)Nc1ccccc1)Oc1ccccc1` (stereo not drawn), the activation is reported as inactive: 0.2%. For `CCc1ccc(OP(C)(=O)N2CCN(c3ccc([N+](=O)[O-])cc3)CC2)cc1` (stereo not drawn), the activation was inactive: 0.3%. In the case of `CCOP(C)(=S)SCC(=O)NC(C)C(=O)O` (stereo not drawn), the activation is reported as inactive: -0.2%. `O=C(OC1CN2CCC1CC2)c1cccc([N+](=O)[O-])c1` (stereo not drawn) was tested, and the activation was “inactive”. For `CCOC(=O)c1ccc(NP(C)(=O)Oc2ccc(OC)cc2)cc1` (stereo not drawn), the activation was inactive: -0.3%. `CP(=O)(Nc1ccccn1)Oc1ccc(Cl)cc1` (stereo not drawn) was tested, and the activation was inactive: -0.2%. `CCN(CC)CCCOC(=O)C(O)(c1ccccc1)c1ccccc1` was tested, and the activation was inactive: 0.4%. With `COc1cc(I)ccc1[As](=O)(O)O` the activation was “inactive”. For `COc1ccc2nc(NP(=O)(c3ccccc3)c3ccccc3)sc2c1`, the activation was “inactive”. For `C[As](=O)(O)c1cccc(C(=O)O)c1`, the activation was “inactive”. With `O=[As](O)(c1ccc(O)cc1)c1ccccc1O` the activation was “inactive”. `Cc1cccc(C)c1OP(C)(N)=O` (stereo not drawn) was tested, and the activation was inactive: -0.4%. In the case of `CC(C)(C)c1ccc(OP(C)(=O)Nc2ccc(SC(F)(F)F)cc2)cc1` (stereo not drawn), the activation is reported as inactive: 0.5%. With `O=[N+]([O-])c1ccc2c(c1)C=Nc1ccccc1O2` the activation was inactive: 0.5%. In the case of `CCOC(=O)c1ccc(NP(C)(=O)Oc2ccccc2)cc1` (stereo not drawn), the activation is reported as inactive: -0.2%. In the case of `CC(C)c1ccc(OP(=O)(Nc2ccccn2)Oc2ccccc2F)cc1` (stereo not drawn), the activation is reported as “inactive”. `Cc1ccc(NP(C)(=O)Oc2ccccc2)c(C)c1` (stereo not drawn) was tested, and the activation was inactive: -0.2%. For `COc1ccccc1OP(C)(=O)Nc1ccc(C)cc1` (stereo not drawn), the activation was inactive: -0.3%. `COc1ccc(OP(C)(=O)Nc2cccc(F)c2)cc1` (stereo not drawn) was tested, and the activation was inactive: -0.2%. `COc1ccccc1OP(C)(=O)Nc1cc(Cl)ccc1C` (stereo not drawn) was tested, and the activation was inactive: -0.1%. In the case of `Cc1cc(C)cc(OP(C)(N)=O)c1` (stereo not drawn), the activation is reported as inactive: -0.3%. In the case of `Cc1cc(C)cc(OP(C)(=O)Nc2cccc(C(F)(F)F)c2)c1` (stereo not drawn), the activation is reported as inactive: -0.1%. With `COc1ccc(OP(C)(=O)Nc2ccccc2Br)cc1` (stereo not drawn) the activation was inactive: -0.3%.
